Read-outs that look alike come from different tables or passages of the source.

The target in data set [1] is T1, OATP1B1 (Homo sapiens, UniProt Q9Y6L6).
T1 sequence (Q9Y6L6 1-691): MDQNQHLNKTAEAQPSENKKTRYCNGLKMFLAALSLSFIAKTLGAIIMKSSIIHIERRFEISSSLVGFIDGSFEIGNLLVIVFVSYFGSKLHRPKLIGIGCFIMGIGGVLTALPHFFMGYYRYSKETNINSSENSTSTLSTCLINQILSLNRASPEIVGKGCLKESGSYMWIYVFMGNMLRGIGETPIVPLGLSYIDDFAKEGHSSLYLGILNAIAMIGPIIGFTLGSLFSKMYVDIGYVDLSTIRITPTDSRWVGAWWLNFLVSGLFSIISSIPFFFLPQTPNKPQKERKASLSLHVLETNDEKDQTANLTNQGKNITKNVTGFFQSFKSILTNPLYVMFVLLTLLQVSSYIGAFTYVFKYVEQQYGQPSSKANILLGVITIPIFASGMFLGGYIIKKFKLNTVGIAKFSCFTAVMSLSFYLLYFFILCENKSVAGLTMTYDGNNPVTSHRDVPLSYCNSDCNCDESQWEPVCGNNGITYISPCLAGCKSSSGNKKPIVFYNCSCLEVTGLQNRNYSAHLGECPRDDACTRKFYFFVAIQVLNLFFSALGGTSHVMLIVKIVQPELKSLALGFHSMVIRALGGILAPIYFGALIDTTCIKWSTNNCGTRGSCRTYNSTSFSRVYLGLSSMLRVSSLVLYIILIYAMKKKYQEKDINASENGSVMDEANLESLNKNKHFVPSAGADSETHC
As to the kind of experiment: Transporter substrate study using HEK293-OATP1B1 cells.

The target of data set [2] is T1, OATP1B1. As to conditions: 10 μM MPAG.

Take `C[C@]12CC[C@@H]3c4ccc(O)cc4CC[C@H]3[C@@H]1CC[C@@H]2O[C@@H]1O[C@H](C(=O)O)[C@@H](O)[C@H](O)[C@H]1O` [E217βG, Estradiol-17β-D-glucuronide]: the “uptake ratio (UR) of probe substrate mediated by OATP1B1” value at OATP1B1 [1] (without inhibitor, vs MOCK cells) was determined as 17.9.
As to `CO[C@H]1/C=C/O[C@@]2(C)Oc3c(C)c(O)c4c(O)c(c(/C=N/N5CCN(C)CC5)c(O)c4c3C2=O)NC(=O)/C(C)=C\C=C\[C@H](C)[C@H](O)[C@@H](C)[C@@H](O)[C@@H](C)[C@H](OC(C)=O)[C@@H]1C` [rifampicin], on OATP1B1 [1] (rifampicin treatment, probe substrate E217βG), the “inhibition rate of OATP1B1-mediated E217βG uptake” value worked out at 97.7%. Besides, the “Relative net uptake rate of MPAG (% of NC), Mean” value is 109 % of NC on OATP1B1 [2] (0.1 μM); 26.8 % of NC on OATP1B1 [2] (1 μM); 30.9 % of NC on OATP1B1 [2] (3 μM); 8.07 % of NC on OATP1B1 [2] (10 μM); 2.90 % of NC on OATP1B1 [2] (30 μM); 3.13 % of NC on OATP1B1 [2] (100 μM).
